Broadly, the Kd is the concentration at which binding is half-saturated. Low readings indicate higher affinity, high ones lower affinity.

Sequences of proteins named here, by UniProt entry; tags and fusion partners are left off. Residues count along the entry.
UniProt Q9Y4B6, 1058-1396 limits assumed: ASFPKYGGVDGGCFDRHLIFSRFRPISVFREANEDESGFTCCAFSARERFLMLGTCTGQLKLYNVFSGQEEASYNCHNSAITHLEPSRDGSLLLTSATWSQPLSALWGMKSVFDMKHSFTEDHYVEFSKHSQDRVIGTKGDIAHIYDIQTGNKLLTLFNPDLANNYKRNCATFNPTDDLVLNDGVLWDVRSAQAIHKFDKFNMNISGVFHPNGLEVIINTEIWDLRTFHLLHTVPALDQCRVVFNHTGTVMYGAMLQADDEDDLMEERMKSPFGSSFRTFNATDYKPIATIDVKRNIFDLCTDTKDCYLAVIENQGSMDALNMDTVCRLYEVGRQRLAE

For the assay, the target named is DCAF1 (1058-1396) (Homo sapiens, UniProt Q9Y4B6). The assay is described as follows: SPR binding to DCAF1 (1058-1396), steady state Kd. The settings on record: 25 °C, steady state affinity model, Table 7.
`O=C(c1ccc(Cl)c(Cl)c1)N1C[C@@H]2C[C@H]1CN2c1ccccc1` showed a Kd of 50 to 100 µM.

`c1ccc(N2CCC(CCNc3cc(N4CCOCC4)ncn3)C2)cc1` (stereo not drawn): the Kd was > 100 µM.

For the compound `c1ccc(N2CCC3(CCC3CNc3cc(N4CCOCC4)ncn3)CC2)cc1` (stereo not drawn), the Kd is > 100 µM.

For the compound `c1nc(N[C@@H]2CCCN(C3CCCC3)C2)cc(N2CCOCC2)n1`, the Kd lay within 50 to 100 µM.

In turn, `Oc1cncc(N2CCC[C@@H](Nc3cc(N4CCOCC4)ncn3)C2)c1` registered a Kd of 50 to 100 µM.

`c1nc(NC2CCN(C3CCCC3)CC2)cc(N2CCOCC2)n1`: the Kd was in the range of 25 to 50 µM.

Regarding `c1ccc(N2CC3CCN(c4cc(N5CCOCC5)ncn4)C3C2)cc1` (stereo not drawn), the Kd was > 100 µM.

Turning to `OCc1ccc(N2CCC[C@@H](Nc3nccc(N4CCOCC4)n3)C2)nc1`, the Kd is < 25 µM.

As to `c1ccc(NC2CC3CC2N(c2cc(N4CCOCC4)ncn2)C3)cc1` (stereo not drawn), the Kd was in the range of 50 to 100 µM.

`c1ccc(N2C[C@@H]3[C@H](C2)[C@H]3Nc2cc(N3CCOCC3)ncn2)cc1`: the Kd is < 25 µM.

In the case of `c1ccc(N[C@H]2C[C@H](Nc3cc(N4CCOCC4)ncn3)C2)cc1`, the Kd is > 100 µM.

Turning to `O=C(NCC(CO)CNc1ccccc1)c1ccc(Cl)c(Cl)c1` (stereo not drawn), the Kd was > 100 µM.

Turning to `c1ccc(NC2CCC(CNc3cc(N4CCOCC4)ncn3)C2)cc1` (stereo not drawn), the Kd was > 100 µM.

For `CNC(=O)c1cc(N2CCC(Nc3ccccc3)C2)ncn1` (stereo not drawn), the Kd is > 100 µM.

Consider `O=C(c1ccc(Cl)c(Cl)c1)N1CC2(CC(Nc3ccccc3)C2)C1`, for which the Kd fell in the range of 25 to 50 µM.

`Cc1cc(N2CCC[C@@H](Nc3cc(N4CCOCC4)ncn3)C2)ncc1N`: the Kd was > 100 µM.

In the case of `O=C(c1ccc(Cl)c(Cl)c1)N1C[C@H]2C[C@@H]1CN2c1ccccc1`, the Kd was > 100 µM.

With `c1ccc(N2CC(CCNc3cc(N4CCOCC4)ncn3)C2)cc1`, the Kd is > 100 µM.

Regarding `FC(CNc1cc(N2CCOCC2)ncn1)=C1CN(c2ccccc2)C1`, the Kd is < 25 µM.

Turning to `Fc1cccc(N2CCC[C@H](Nc3nc(N4CCOCC4)ns3)C2)c1`, the Kd was > 100 µM.

Consider `Fc1cccc(N2CCC[C@@H](Nc3cnnc(N4CCOCC4)c3)C2)c1`, for which the Kd was > 100 µM.

The compound `c1ccc(N2CCC[C@@H](Nc3cc(N4CCOCC4)ncn3)C2)cc1` gave a Kd of 25 to 50 µM.

Turning to `c1ccc(NCC2CC3(C2)CN(c2cc(N4CCOCC4)ncn2)C3)cc1`, the Kd was > 100 µM.

In the case of `c1cncc(N2CCC[C@@H](Nc3cc(N4CCOCC4)ncn3)C2)c1`, the Kd lay in the range of 25 to 50 µM.

For `Fc1cccc(N2CCC[C@@H](Nc3nsc(N4CCOCC4)n3)C2)c1`, the Kd is > 100 µM.

Regarding `CN1CCN(c2cc(N[C@@H]3CCCN(c4cccc(F)c4)C3)ncn2)CC1`, the Kd is > 100 µM.

For the compound `O=C(c1ccc(Cl)c(Cl)c1)N1CCC2(CC1)CCN2c1ccccc1`, the Kd is > 100 µM.

For the compound `c1ccc(N2CCC(Nc3cc(N4CCOCC4)ncn3)CC2)cc1`, the Kd is > 100 µM.

For `Fc1cccc(N2CCC[C@@H](Nc3cc(N4CCOCC4)ccn3)C2)c1`, the Kd is > 100 µM.

Take `Fc1cccc(N2CCC[C@@H](Nc3cc(N4CCOCC4)n4ncnc4c3)C2)c1`: the Kd was > 100 µM.

Regarding `c1ccc(NC2CCN(c3nccc(N4CCOCC4)n3)C2)cc1` (stereo not drawn), the Kd is 25 to 50 µM.

Regarding `CNC(=O)c1ccnc(N2CC3(CN(c4ccccc4)C3)C2)c1`, the Kd is > 100 µM.

On to `Cc1cc(N2CCC[C@@H](Nc3cc(N4CCOCC4)ncn3)C2)n(C)n1`, for which the Kd is > 100 µM.

As for `c1ccc(N2CC(CNc3cc(N4CCOCC4)ncn3)C2)cc1`, the Kd was > 100 µM.

As for `CNC(=O)c1ccnc(N[C@H]2[C@@H]3CN(c4ccccc4)C[C@@H]32)c1`, the Kd was > 100 µM.

As for `c1ccc(N2CC3(CCCN(c4cc(N5CCOCC5)ncn4)C3)C2)cc1`, the Kd is > 100 µM.

Consider `O=C(c1ccc(Cl)c(Cl)c1)N1C[C@H]2C[C@@H](C1)N2c1ccccc1`, for which the Kd is > 100 µM.

For the compound `CNC(=O)c1cc(NCC2CCN(c3ccccc3)CC2)ncn1`, the Kd was > 100 µM.

The compound `c1ccc(N2CCOC3(CCN(c4cc(N5CCOCC5)ncn4)CC3)C2)cc1` returned a Kd of 50 to 100 µM.

Turning to `Fc1cccc(N2CC[C@@H](Nc3cc(N4CCOCC4)ncn3)C2)c1`, the Kd is > 100 µM.

`CC(=O)NC1CCN(c2nccc(N3CCOCC3)n2)C1` (stereo not drawn): the Kd is > 100 µM.

With `Fc1cccc(N2CCC[C@@H](Nc3cc(N4CCOCC4)cnn3)C2)c1`, the Kd was > 100 µM.

Regarding `c1ccc(NC2CC3(C2)CN(c2cc(N4CCOCC4)ncn2)C3)cc1`, the dissociation constant Kd is > 100 µM.

Turning to `c1nc(N[C@@H]2CCCN(c3cn[nH]c3)C2)cc(N2CCOCC2)n1`, the Kd was > 100 µM.

For the compound `c1ccc(N2[C@@H]3C[C@H]2CN(c2cc(N4CCOCC4)ncn2)C3)cc1`, the Kd was > 100 µM.

With `c1cc(N2CCC(CNc3cc(N4CCOCC4)ncn3)CC2)ncn1`, the Kd was > 100 µM.

Take `Cc1cnc(N2CCC[C@@H](Nc3cc(N4CCOCC4)ncn3)C2)nc1`: the Kd was > 100 µM.

As to `CNC(=O)c1ccnc(N2CCC3(CC2)CN(c2ccccc2)CCO3)c1`, the Kd was > 100 µM.

For `Cn1cc(N2CCC[C@@H](Nc3cc(N4CCOCC4)ncn3)C2)cn1`, the Kd is > 100 µM.

With `Nc1ccnc(N2CCC[C@@H](Nc3cc(N4CCOCC4)ncn3)C2)c1`, the Kd is > 100 µM.

For the compound `c1ccc(N2CCC3(CCN(c4cc(N5CCOCC5)ccn4)C3)C2)cc1` (stereo not drawn), the Kd was > 100 µM.

For `Fc1cccc(N2CCC[C@@H](Nc3ccnc(N4CCOCC4)c3)C2)c1`, the Kd is > 100 µM.

`CCC(=O)N1CC2(C1)CN(c1nccc(N3CCOCC3)n1)C2` registered a Kd of 25 to 50 µM.

In turn, `c1cnc(N2CCC[C@@H](Nc3cc(N4CCOCC4)ncn3)C2)cn1` showed a Kd of 25 to 50 µM.

Regarding `OCc1ccc(N2CCC[C@@H](Nc3cc(N4CCOCC4)ncn3)C2)nc1`, the Kd was < 25 µM.

In the case of `Cc1nc(N2CCC[C@@H](Nc3cc(N4CCOCC4)ncn3)C2)no1`, the Kd is > 100 µM.

Take `Fc1cccc(N2CCC[C@@H](Nc3ccnc(N4CCOCC4)n3)C2)c1`: the Kd lay within 50 to 100 µM.

With `N#Cc1cnc(N2CCC[C@@H](Nc3cc(N4CCOCC4)ncn3)C2)cn1`, the Kd is > 100 µM.

Take `N#CCn1cc(N2CCC[C@@H](Nc3cc(N4CCOCC4)ncn3)C2)cn1`: the Kd was > 100 µM.

For `c1ccc(N2CC3(C2)CN(c2cc(N4CCOCC4)ncn2)C3)cc1`, the dissociation constant (Kd) is > 100 µM.

As to `CNC(=O)c1ccnc(NCC2CN(c3ccccc3)C2)n1`, the Kd was > 100 µM.

As to `CNC(=O)c1ccnc(N2CCC3(CCN(c4ccccc4)C3)C2)c1` (stereo not drawn), the Kd was < 25 µM.

For `c1ccc(NC2CCCCN(c3cc(N4CCOCC4)ncn3)C2)cc1` (stereo not drawn), the Kd was 50 to 100 µM.

In turn, `O=C(N[C@H]1[C@@H]2CN(c3ccccc3)C[C@@H]21)c1ccc(Cl)c(Cl)c1` had a Kd of 25 to 50 µM.

Compound `Fc1cccc(N2CCC[C@@H](Nc3ncnc(N4CCOCC4)n3)C2)c1` gave a Kd of 50 to 100 µM.

Consider `c1ccc(N2CCC3(C2)CN(c2cc(N4CCOCC4)ncn2)C3)cc1`, for which the Kd was > 100 µM.

Take `Fc1cccc(N2CCC[C@@H](Nc3nc(N4CCOCC4)c4nc[nH]c4n3)C2)c1`: the Kd is > 100 µM.

In the case of `Fc1ccccc1N1CCC[C@@H](Nc2cc(N3CCOCC3)ncn2)C1`, the Kd is > 100 µM.

Regarding `CNC(=O)c1ccnc(N[C@H]2C[C@H](Nc3ccccc3)C2)c1`, the Kd is > 100 µM.

On to `c1nc(N[C@@H]2CCCN(c3cc(C4CC4)no3)C2)cc(N2CCOCC2)n1`, for which the Kd was in the range of 50 to 100 µM.

Regarding `c1ccc(N2CCC3CN(c4cc(N5CCOCC5)ncn4)CC32)cc1` (stereo not drawn), the equilibrium dissociation constant (Kd) was > 100 µM.

For `Nc1ccc(N2CCC[C@@H](Nc3cc(N4CCOCC4)ncn3)C2)c(Br)c1`, the Kd is > 100 µM.

Take `CN(c1ccccc1)C1COC2(C1)CN(c1cc(N3CCOCC3)ncn1)C2` (stereo not drawn): the Kd is > 100 µM.

Turning to `c1ccc(NC2CC(CCNc3cc(N4CCOCC4)ncn3)C2)cc1` (stereo not drawn), the Kd is < 25 µM.

With `CNC(=O)c1ccnc(N[C@@H]2CCCN(c3cccc(F)c3)C2)c1`, the Kd is > 100 µM.

On to `c1cc(N2CCC[C@@H](Nc3cc(N4CCOCC4)ncn3)C2)ccn1`, for which the Kd is < 25 µM.

Turning to `c1nc(N[C@@H]2CCCN(c3nc[nH]n3)C2)cc(N2CCOCC2)n1`, the Kd is > 100 µM.

With `c1ccc(NC2CCCC(Nc3cc(N4CCOCC4)ncn3)C2)cc1` (stereo not drawn), the Kd lay in the range of 50 to 100 µM.

With `c1nc(N2CCOCC2)cc(N2CCC(Nc3ccc4cc[nH]c4c3)C2)n1` (stereo not drawn), the Kd lay in the range of 50 to 100 µM.

`Fc1cccc(N2CCC[C@@H](Nc3nccc(N4CCOCC4)n3)C2)c1`: the Kd was > 100 µM.

For `CNC(=O)c1cc(N2CCC3(CCN(c4ccccc4)C3)C2)ncn1` (stereo not drawn), the Kd is > 100 µM.

`c1ncc(N2CCC[C@@H](Nc3cc(N4CCOCC4)ncn3)C2)cn1`: the Kd is > 100 µM.

Regarding `c1ccc(NCC2CCN(c3cc(N4CCOCC4)ncn3)C2)cc1` (stereo not drawn), the Kd is > 100 µM.

`Cc1ccc(C)c(N2CCC[C@@H](Nc3cc(N4CCOCC4)ncn3)C2)c1`: the Kd is > 100 µM.

Take `CNC(=O)c1ccnc(N2C[C@H]3C[C@@H]2CN3c2ccccc2)c1`: the Kd was > 100 µM.

As to `c1ccc(N[C@H]2CC[C@H](Nc3cc(N4CCOCC4)ncn3)C2)cc1`, the dissociation constant Kd is > 100 µM.

As to `Nc1nc(O)cc(N2CCC[C@@H](Nc3cc(N4CCOCC4)ncn3)C2)n1`, the Kd was > 100 µM.

`O=C(c1ccc(Cl)c(O)c1)N1CCC2(C1)CN(c1ccccc1)C2`: the Kd was > 100 µM.

For `c1cnc(N2CCC[C@@H](Nc3cc(N4CCOCC4)ncn3)C2)nc1`, the Kd was < 25 µM.

With `OCc1scnc1N1CCC[C@@H](Nc2cc(N3CCOCC3)ncn2)C1`, the Kd was in the range of 25 to 50 µM.

For `c1ccc(NC2CCC3CN(c4cc(N5CCOCC5)ncn4)CC32)cc1` (stereo not drawn), the Kd is > 100 µM.

Regarding `c1ccc(N2CCC(CNc3nccc(N4CCOCC4)n3)CC2)cc1`, the Kd was > 100 µM.

As for `O=C(c1ccc(Cl)c(Cl)c1)N1CCC2(CCN(c3ccccc3)C2)C1` (stereo not drawn), the Kd is > 100 µM.

Turning to `N#Cc1nnc(N2CCC[C@@H](Nc3cc(N4CCOCC4)ncn3)C2)s1`, the Kd is > 100 µM.

`Oc1cccc(N2CCC[C@@H](Nc3cc(N4CCOCC4)ncn3)C2)c1`: the Kd fell in the range of 50 to 100 µM.

On to `O=C(NCC1CN(c2ccccc2)C1)c1ccc(Cl)c(Cl)c1`, for which the Kd is > 100 µM.

`Fc1cnc(N2CCC[C@@H](Nc3cc(N4CCOCC4)ncn3)C2)c(F)c1` registered a Kd of 25 to 50 µM.

On to `c1ccc(N2CCC(CNc3cc(N4CCOCC4)ncn3)CC2)cc1`, for which the Kd is < 25 µM.

For `Oc1cncc(N2CCC[C@@H](Nc3cc(N4CCOCC4)ncn3)C2)n1`, the Kd was > 100 µM.

The values are drawn from patent publication US20260382728A1, “MODIFIED PROTEINS AND PROTEIN BINDERS AND DEGRADERS” (published 2026).
